Molecules are shown by their SMILES.

Protein sequences, listed by entry. Tags and fused reporters are not part of them.
UniProt P50750, whole entry: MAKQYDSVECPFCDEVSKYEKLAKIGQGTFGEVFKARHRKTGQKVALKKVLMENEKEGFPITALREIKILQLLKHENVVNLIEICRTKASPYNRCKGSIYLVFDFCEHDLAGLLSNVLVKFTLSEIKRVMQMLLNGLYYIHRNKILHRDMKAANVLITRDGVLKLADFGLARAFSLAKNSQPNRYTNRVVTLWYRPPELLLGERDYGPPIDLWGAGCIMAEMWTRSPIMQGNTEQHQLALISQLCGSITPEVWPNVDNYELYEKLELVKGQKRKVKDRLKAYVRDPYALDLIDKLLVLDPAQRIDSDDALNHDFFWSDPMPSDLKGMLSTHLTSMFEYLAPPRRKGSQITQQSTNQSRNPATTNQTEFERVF
UniProt P22518, whole entry: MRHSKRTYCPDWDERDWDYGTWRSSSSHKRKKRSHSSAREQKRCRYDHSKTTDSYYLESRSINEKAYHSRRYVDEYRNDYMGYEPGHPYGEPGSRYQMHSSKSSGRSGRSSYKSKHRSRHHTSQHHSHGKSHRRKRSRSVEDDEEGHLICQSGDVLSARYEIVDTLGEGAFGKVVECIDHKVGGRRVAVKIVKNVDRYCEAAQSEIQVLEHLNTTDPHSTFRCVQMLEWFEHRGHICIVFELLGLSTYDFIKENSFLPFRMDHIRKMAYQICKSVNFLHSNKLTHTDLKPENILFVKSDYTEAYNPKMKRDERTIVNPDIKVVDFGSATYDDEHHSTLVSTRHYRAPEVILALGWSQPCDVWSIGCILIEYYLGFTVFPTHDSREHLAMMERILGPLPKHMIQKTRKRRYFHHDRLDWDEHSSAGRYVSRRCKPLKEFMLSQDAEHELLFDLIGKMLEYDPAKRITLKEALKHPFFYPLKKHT
UniProt P49841, whole entry: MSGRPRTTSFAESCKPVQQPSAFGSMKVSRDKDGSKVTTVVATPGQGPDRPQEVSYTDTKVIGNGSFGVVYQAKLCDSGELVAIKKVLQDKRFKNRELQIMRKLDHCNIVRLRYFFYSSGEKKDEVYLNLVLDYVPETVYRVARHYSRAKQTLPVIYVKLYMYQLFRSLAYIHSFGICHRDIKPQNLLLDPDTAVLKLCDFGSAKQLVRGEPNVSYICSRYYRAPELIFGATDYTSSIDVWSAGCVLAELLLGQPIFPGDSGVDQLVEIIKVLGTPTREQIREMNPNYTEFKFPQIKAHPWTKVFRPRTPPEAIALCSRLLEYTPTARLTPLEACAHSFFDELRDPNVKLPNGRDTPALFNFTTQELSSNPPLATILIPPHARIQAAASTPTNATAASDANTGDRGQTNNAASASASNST
UniProt O60563, whole entry partner: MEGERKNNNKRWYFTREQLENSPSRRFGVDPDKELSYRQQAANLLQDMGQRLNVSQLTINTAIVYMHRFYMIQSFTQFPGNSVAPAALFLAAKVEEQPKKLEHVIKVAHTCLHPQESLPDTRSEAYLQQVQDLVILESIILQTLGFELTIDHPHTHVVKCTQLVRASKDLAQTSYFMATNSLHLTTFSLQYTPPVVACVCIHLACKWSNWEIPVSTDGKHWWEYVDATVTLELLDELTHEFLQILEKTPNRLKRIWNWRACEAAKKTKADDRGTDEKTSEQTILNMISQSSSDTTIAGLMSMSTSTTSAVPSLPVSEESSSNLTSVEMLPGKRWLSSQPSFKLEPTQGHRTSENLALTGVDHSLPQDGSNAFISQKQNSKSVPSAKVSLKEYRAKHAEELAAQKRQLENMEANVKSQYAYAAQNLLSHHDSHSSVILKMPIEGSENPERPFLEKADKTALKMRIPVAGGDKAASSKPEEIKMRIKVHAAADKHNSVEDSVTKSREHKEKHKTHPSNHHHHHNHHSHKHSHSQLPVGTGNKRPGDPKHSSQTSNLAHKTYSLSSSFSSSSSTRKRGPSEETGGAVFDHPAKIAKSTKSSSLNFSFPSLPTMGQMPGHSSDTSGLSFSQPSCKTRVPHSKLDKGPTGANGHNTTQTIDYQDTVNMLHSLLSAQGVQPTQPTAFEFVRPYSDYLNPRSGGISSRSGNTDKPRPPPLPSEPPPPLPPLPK

Data on one compound can be found in article PMC6491434 (Scientific Reports, 2019).

Common to all, as to type: biochemical
The target in one assay is CDK2/A (Homo sapiens, UniProt P24941). Nature of the assay: protein kinase catalytic activity assay, CDK2/cyclin A. Conditions: read-out: IC50 towards CDK2/A.
The target in another assay is CDK9/T (Homo sapiens, UniProt P50750). Nature of the assay: protein kinase catalytic activity assay, CDK9/cyclin T. Conditions: read-out: IC50 towards CDK9/T.
In a further assay the target is CK1. Nature of the assay: protein kinase catalytic activity assay, CK1. Conditions: read-out: IC50 towards CK1.
The target of the next assay is CLK1 (Mus musculus, UniProt P22518). As to the kind of experiment: protein kinase catalytic activity assay, CLK1. Conditions: read-out: IC50 towards CLK1.
The target of another assay is DYRK1A (Rattus norvegicus, UniProt Q63470). As to the kind of experiment: protein kinase catalytic activity assay, DYRK1A. Conditions: read-out: IC50 towards DYRK1A.
In the next assay the target is GSK3 (Homo sapiens, UniProt P49841). As to the kind of experiment: protein kinase catalytic activity assay, GSK3. Conditions: read-out: IC50 towards GSK3.

Turning to `CC[C@H](CO)Nc1nc(NCc2cccc(C(F)(F)F)c2)c2ncn(C(C)C)c2n1`, the IC50 at CDK2/A was 110 nM; at CDK9/T, 433 nM; at CK1 it was 470 nM; on CLK1, 1500 nM; on DYRK1A it was 2000 nM; at GSK3, above 10 µM.
